Results on two compounds are retold here after ChEMBL document CHEMBL5390264, “Exploring Fatty Acid Mimetics as NR4A Ligands” (J Med Chem, 2023).

Amino acid sequences for entries named in this document (tags omitted). A change or cut given only in a name is not applied to a line headed by its entry.
UniProt P22736, whole entry: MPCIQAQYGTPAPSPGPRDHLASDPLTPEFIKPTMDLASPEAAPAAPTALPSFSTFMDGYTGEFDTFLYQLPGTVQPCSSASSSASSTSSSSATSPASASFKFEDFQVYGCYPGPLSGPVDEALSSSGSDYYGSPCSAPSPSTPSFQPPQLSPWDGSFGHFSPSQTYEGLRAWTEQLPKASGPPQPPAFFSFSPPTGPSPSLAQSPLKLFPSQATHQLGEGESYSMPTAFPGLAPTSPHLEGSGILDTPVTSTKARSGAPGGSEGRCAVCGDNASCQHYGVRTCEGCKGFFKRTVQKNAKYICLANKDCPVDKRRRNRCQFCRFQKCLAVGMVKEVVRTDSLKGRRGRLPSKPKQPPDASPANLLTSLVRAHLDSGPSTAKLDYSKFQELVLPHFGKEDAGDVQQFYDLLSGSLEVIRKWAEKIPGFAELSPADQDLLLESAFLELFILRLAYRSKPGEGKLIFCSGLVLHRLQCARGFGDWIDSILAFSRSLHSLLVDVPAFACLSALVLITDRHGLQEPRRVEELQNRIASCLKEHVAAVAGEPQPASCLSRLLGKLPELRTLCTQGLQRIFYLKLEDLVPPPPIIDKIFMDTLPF
UniProt Q92570: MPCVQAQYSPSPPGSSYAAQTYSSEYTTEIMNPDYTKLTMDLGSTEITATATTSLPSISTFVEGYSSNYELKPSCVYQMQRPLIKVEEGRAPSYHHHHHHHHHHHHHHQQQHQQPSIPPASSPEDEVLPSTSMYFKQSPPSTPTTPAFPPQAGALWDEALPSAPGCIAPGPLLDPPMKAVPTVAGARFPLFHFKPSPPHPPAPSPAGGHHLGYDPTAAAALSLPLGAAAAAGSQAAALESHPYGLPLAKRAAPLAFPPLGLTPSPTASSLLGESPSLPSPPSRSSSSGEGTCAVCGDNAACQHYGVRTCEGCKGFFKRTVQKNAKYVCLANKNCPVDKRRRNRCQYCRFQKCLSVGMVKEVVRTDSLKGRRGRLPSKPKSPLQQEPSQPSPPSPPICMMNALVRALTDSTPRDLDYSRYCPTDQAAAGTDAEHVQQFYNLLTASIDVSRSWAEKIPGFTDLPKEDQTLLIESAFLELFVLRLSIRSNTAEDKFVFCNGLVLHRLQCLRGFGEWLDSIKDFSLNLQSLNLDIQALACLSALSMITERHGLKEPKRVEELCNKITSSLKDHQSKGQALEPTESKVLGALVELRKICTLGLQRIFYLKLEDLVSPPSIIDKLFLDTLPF

Molecules are shown by their SMILES. The source made the active and inactive calls. The calls are words filed in the database; no cut-off is given here.

Holding throughout (assay type): cell-based
For experiment [1], the target named is T1, Nuclear receptor subfamily 4immunitygroup A member 1 (Homo sapiens, UniProt P22736). The experiment in a line: Agonist activity at human Nur77 LBD transiently transfected in HEK293T cells assessed as maximal activation incubated for 16 hrs by Gal4-hybrid reporter gene based Dual-glo luciferase assay relative to control. The following applies: filed as agonist.

The target of experiment [2] is Nuclear receptor subfamily 4 group A member 3 (Homo sapiens, UniProt Q92570). The experiment in a line: Agonist activity at human NOR-1 LBD transiently transfected in HEK293T cells assessed as maximal activation incubated for 16 hrs by Gal4-hybrid reporter gene based Dual-glo luciferase assay relative to control. The following applies: filed as agonist. For orientation: A reporter such as luciferase makes a cellular process visible.

Experiment [3] addresses T1, Nuclear receptor subfamily 4immunitygroup A member 1. The experiment in a line: Modulation of human Nur77 LBD transiently transfected in HEK293T cells at 100 to 200 uM incubated for 16 hrs by Gal4-hybrid reporter gene based Dual-glo luciferase assay. The following applies: dose 100-200 µM.

On to `O=C(O)c1cccc(OCc2ccc(Cl)cc2Cl)c1`, for which the values for the Emax in experiment [1] and in experiment [2] were 211% and 221%, respectively.
On to `O=C(O)Cc1ccccc1Br`, for which the result in experiment [3] was inactive.

As a reminder, the Emax is the greatest response seen or fitted, relative to the assay's reference.
